The values that follow come from patent US20250092067A1, “APT1 and APT2 Inhibitors and Uses Thereof” (Cornell University, priority 2021, published 2025).

Sequences of proteins named here, by UniProt entry; tags and fusion partners are left off.
UniProt O75608, whole entry: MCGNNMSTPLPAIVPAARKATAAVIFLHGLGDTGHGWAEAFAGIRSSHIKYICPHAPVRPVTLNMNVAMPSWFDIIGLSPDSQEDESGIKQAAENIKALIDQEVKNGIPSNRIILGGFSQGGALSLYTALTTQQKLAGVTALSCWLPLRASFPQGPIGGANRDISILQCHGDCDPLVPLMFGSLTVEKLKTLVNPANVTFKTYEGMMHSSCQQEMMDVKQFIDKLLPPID
UniProt O95372, whole entry: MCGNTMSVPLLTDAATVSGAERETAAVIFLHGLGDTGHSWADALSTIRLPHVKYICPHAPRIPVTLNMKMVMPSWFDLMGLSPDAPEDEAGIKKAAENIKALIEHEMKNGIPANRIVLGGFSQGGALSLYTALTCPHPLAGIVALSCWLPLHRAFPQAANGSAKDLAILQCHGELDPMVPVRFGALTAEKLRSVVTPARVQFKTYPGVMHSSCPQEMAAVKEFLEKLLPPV

For one experiment, the target named is APT1 (Homo sapiens, UniProt O75608). As to the kind of experiment: APT1 enzymatic assay, resorufin acetate as fluorogenic substrate. Type of experiment: biochemical.
The next experiment concerns the target APT2 (Homo sapiens, UniProt O95372). As to the kind of experiment: APT2 enzymatic assay, resorufin acetate as fluorogenic substrate. The class given is biochemical.
Setting [1] is: read-out: IC50 APT1, Table 3, class symbols.
Setting [2] is: read-out: IC50 APT2, Table 3, class symbols.
Where [3] appears, read: read-out: IC50 APT1, Table 4, class symbols.
Setting [4] is: read-out: IC50 APT2, Table 4, class symbols.
Setting [5] is: read-out: IC50 (μM) APT1, Table 2, class symbols.
[6] abbreviates: read-out: IC50 (μM) APT2, Table 2, class symbols.

Structures are written as SMILES. Like-named read-outs stand apart in the source and are kept apart here.

By IC50 is commonly meant the point on the concentration scale where inhibition reaches its midpoint. With `O=C(c1cc2c(s1)-c1cc(O)ccc1S(=O)(=O)C2)N1CCN(c2ccc(C(F)(F)F)cc2)CC1`, the IC50 at APT1 (setting [1]) and on APT2 (setting [2]) was greater than 40 µM throughout.
As to `COc1ccc2c(c1)-c1sc(C(=O)N3CCN(c4ccc(C(F)(F)F)cc4)CC3)cc1CS2(=O)=O`, the IC50 on APT1 (setting [1]) is greater than 40 µM; on APT2 (setting [2]), 0.1 to 1 µM.
In the same order, the values of `N#Cc1ccc2c(c1)-c1sc(C(=O)N3CCN(c4ccc(C(F)(F)F)cc4)CC3)cc1CS2(=O)=O` are greater than 40 µM and 0.1 to 1 µM.
For `CC(C)(C)c1ccc(N2CCN(C(=O)c3cc4c(s3)-c3ccccc3S(=O)(=O)C4)CC2)cc1`, the IC50 at APT1 (setting [1]) was greater than 40 µM; at APT2 (setting [2]), 0.1 to 1 µM.
Take `COc1ccc(N2CCN(C(=O)c3ccc4cc(P(=O)(O)O)ccc4c3)CC2)cc1`: the IC50 at APT1 (setting [3]) and at APT2 (setting [4]) was greater than 40 µM throughout.
Take `COc1ccc(N2CCN(C(=O)c3cc4c(s3)-c3cc(OC)ccc3S(=O)(=O)C4)CC2)cc1`: the figures for the IC50 on APT1 (setting [1]) and at APT2 (setting [2]) were greater than 40 µM and 0.1 to 1 µM, respectively.
For `COc1ccc(N2CCN(C(=O)c3cc4c(s3)-c3cc(N(C)C)ccc3S(=O)(=O)C4)CC2)cc1`, the IC50 on APT1 (setting [1]) and at APT2 (setting [2]) was greater than 40 µM each time.
Turning to `O=C(c1cc2c(s1)-c1cc(F)ccc1S(=O)(=O)C2)N1CCN(c2ccc(C(F)(F)F)cc2)CC1`, the IC50 at APT1 (setting [1]) and at APT2 (setting [2]) was greater than 40 µM throughout.
Consider `O=C(c1cc2c(s1)-c1ccccc1S(=O)(=O)C2)N1CCN(c2ccc(C(F)F)cc2)CC1`, for which the IC50 on APT1 (setting [1]) and at APT2 (setting [2]) was greater than 40 µM in each case.
For `O=C(c1cc2c(s1)-c1ccc(Cl)cc1S(=O)(=O)C2)N1CCN(c2ccc(C(F)(F)F)cc2)CC1`, the IC50 is greater than 40 µM at APT1 (setting [1]) and 1 to 40 µM at APT2 (setting [2]).
In the same order, the values of `COc1ccc(N2CCN(C(=O)c3cc4c(s3)-c3cc(C#N)ccc3S(=O)(=O)C4)CC2)cc1` are greater than 40 µM and 0.1 to 1 µM.
In the case of `O=C(c1cc2c(s1)-c1ccc(O)cc1S(=O)(=O)C2)N1CCN(c2ccc(C(F)(F)F)cc2)CC1`, the 50% inhibitory concentration (IC50) on APT1 (setting [1]) is greater than 40 µM; at APT2 (setting [2]), 0.1 to 1 µM.
`O=C(c1cc2c(s1)-c1cc(Cl)ccc1S(=O)(=O)C2)N1CCN(c2ccc(C(F)(F)F)cc2)CC1`: the results for the IC50 on APT1 (setting [1]) and on APT2 (setting [2]) were greater than 40 µM and 0.1 to 1 µM, respectively.
Take `COc1ccc(N2CCN(C(=O)c3cc4cc(O)c5ccccc5c4s3)CC2)cc1` [KW5130, (5-Hydroxynaphtho[1,2-b]thiophen-2-yl) (4-(4-methoxyphenyl)piperazin-1-yl) methanone]: the IC50 on APT1 (setting [5]) is greater than 40 µM; on APT2 (setting [6]), 1 to 40 µM.
As for `COc1ccc(N2CCN(C(=O)c3cc4c(s3)-c3cc(F)ccc3S(=O)(=O)C4)CC2)cc1`, the IC50 was greater than 40 µM on APT1 (setting [1]) and 0.1 to 1 µM at APT2 (setting [2]).
As for `CCOP(=O)(OCC)c1ccc2cc(C(=O)N3CCN(c4ccc(OC)cc4)CC3)ccc2c1`, the IC50 at APT1 (setting [3]) and on APT2 (setting [4]) was greater than 40 µM each time.
In the case of `COc1ccc(N2CCN(C(=O)c3cc4c(s3)-c3ccccc3B(O)O4)CC2)cc1`, the IC50 on APT1 (setting [5]) and at APT2 (setting [6]) was 0.1 to 1 µM throughout.
In the case of `O=C(c1cc2c(s1)-c1ccccc1S(=O)(=O)C2)N1CCN(c2ccc(F)cc2)CC1`, the IC50 on APT1 (setting [1]) and on APT2 (setting [2]) was greater than 40 µM in each case.
On to `COc1ccc(N2CCN(C(=O)c3cc4c(s3)-c3ccc(C#N)cc3S(=O)(=O)C4)CC2)cc1`, for which the values for the IC50 on APT1 (setting [1]) and at APT2 (setting [2]) were greater than 40 µM and 0.1 to 1 µM, respectively.
In the case of `O=C(CN1CCN(C(=O)c2ccco2)CC1)Nc1cccc(B(O)O)c1`, the 50% inhibitory concentration (IC50) at APT1 (setting [5]) is greater than 40 µM; at APT2 (setting [6]) it was 1 to 40 µM.
For the compound `COc1ccc(N2CCN(C(=O)c3cc4c(s3)-c3ccc(Cl)cc3S(=O)(=O)C4)CC2)cc1`, the IC50 at APT1 (setting [1]) was greater than 40 µM; on APT2 (setting [2]), 0.1 to 1 µM.
In the same order, the values of `COc1ccc(N2CCN(C(=O)c3cc4c(s3)-c3ccc(OC)cc3S(=O)(=O)C4)CC2)cc1` are greater than 40 µM and 0.1 to 1 µM.
For `COc1ccc(N2CCN(C(=O)c3cc4c(s3)-c3ccc(F)cc3S(=O)(=O)C4)CC2)cc1`, the IC50 at APT1 (setting [1]) is greater than 40 µM; at APT2 (setting [2]), 0.1 to 1 µM.
For the compound `O=C(CN1CCN(C(=O)c2ccco2)CC1)Nc1ccc(B(O)O)cc1`, the IC50 was in the range of 1 to 40 µM on APT1 (setting [5]) and 0.1 to 1 µM at APT2 (setting [6]).
Regarding `N#Cc1ccc2c(c1)S(=O)(=O)Cc1cc(C(=O)N3CCN(c4ccc(C(F)(F)F)cc4)CC3)sc1-2`, the IC50 at APT1 (setting [1]) and at APT2 (setting [2]) was greater than 40 µM throughout.
In the case of `O=C(c1cc2c(s1)-c1ccccc1S(=O)(=O)C2)N1CCN(c2ccc(C(F)(F)F)cc2)CC1`, the figures for the IC50 at APT1 (setting [1]) and on APT2 (setting [2]) were greater than 40 µM and 0.1 to 1 µM, respectively.
`N#Cc1ccc(N2CCN(C(=O)c3cc4c(s3)-c3ccccc3S(=O)(=O)C4)CC2)cc1`: the IC50 on APT1 (setting [1]) and at APT2 (setting [2]) was greater than 40 µM throughout.
Consider `CNc1ccc(N2CCN(C(=O)c3cc4c(s3)-c3ccccc3S(=O)(=O)C4)CC2)cc1`, for which the IC50 at APT1 (read-out: IC50 APT1, Table 3, class symbols, tested form: HCl) is greater than 40 µM; on APT2 (read-out: IC50 APT2, Table 3, class symbols, tested form: HCl), 1 to 40 µM.
As for `CNc1ccc2c(c1)-c1sc(C(=O)N3CCN(c4ccc(OC)cc4)CC3)cc1CS2(=O)=O`, the IC50 at APT1 (setting [1]) and at APT2 (setting [2]) was greater than 40 µM throughout.
